Assay results published in ChEMBL document CHEMBL1123623, “Synthesis of some [N-(2-haloalkyl)amino]tetralin derivatives as potential irreversible labels for bovine anterior pituitary D2 dopamine receptors” (J Med Chem, 1987).

By UniProt entry, the sequences of proteins in these tests, tags left out.
UniProt P20288, whole entry, looked up: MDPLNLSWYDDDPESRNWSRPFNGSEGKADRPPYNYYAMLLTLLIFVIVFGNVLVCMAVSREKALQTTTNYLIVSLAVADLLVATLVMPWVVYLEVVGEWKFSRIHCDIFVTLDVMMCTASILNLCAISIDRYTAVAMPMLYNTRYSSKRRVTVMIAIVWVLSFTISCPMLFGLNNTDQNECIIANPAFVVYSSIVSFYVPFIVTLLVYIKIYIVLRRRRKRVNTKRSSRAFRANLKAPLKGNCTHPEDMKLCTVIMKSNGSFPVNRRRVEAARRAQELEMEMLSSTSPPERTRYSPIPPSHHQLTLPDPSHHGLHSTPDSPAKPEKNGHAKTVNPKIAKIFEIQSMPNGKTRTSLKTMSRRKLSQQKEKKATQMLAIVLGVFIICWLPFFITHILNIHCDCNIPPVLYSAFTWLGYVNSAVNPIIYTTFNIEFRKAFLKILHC

How the values were obtained:
[1] = molecular target: T1, D(2) dopamine receptor (Bos taurus, UniProt P20288); test: Ability to displace [3H]spiperone binding from anterior pituitary Dopamine receptor D2 in the absence of GTP
[2] = molecular target: T1, D(2) dopamine receptor; test: Ability to displace [3H]spiperone binding from anterior pituitary Dopamine receptor D2 in the presence of 100 uM GTP
[3] = molecular target: T1, D(2) dopamine receptor; test: Ability to displace [3H]spiperone binding from anterior pituitary Dopamine receptor D2 in the absence of GTP; NA means inactive

| SMILES | IC50 [1] | IC50 [2] | IC50 [3] |
| --- | --- | --- | --- |
| Oc1cc2c(cc1O)CC(N(CCBr)CCBr)CC2 (stereo not drawn) | 22 µM | 40.7 µM |  |
| Cl.Oc1ccc2c(c1O)CCC(N(CCCl)CCCl)C2 (stereo not drawn) |  |  | Not Active |
